Results: PubChem BioAssay (NCI)
Only a part is listed here, and it is no random draw. Calls of active or inactive are those of the source. No stated cut-off is given here; in the data, active means growth inhibition above about 70%; inactive means the rest.

Key:
[1] = NCI Yeast Anticancer Drug Screen. Data for the rad50 strain (AID 155);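 further: 0% = growth of vehicle-only cultures of the same strain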; conditions: S. cerevisiae rad50 strain growth inhibition; at 50.0 µM; stronger effect = higher value
[2] = NCI Yeast Anticancer Drug Screen. Data for the mec2-1 strain (AID 157); conditions: S. cerevisiae mec2-1 strain, at 50.0 µM, stronger effect = higher value
[3] = NCI Yeast Anticancer Drug Screen. Data for the sgs1 mgt1 strain (AID 161);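 further: 0% = growth of cultures given vehicle only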; conditions: S. cerevisiae sgs1 mgt1 strain, at 50.0 µM, stronger effect = higher value
[4] = NCI Yeast Anticancer Drug Screen. Data for the cln2 rad14 strain (AID 165);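 further: 0% = growth equal to vehicle treated cultures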; conditions: S. cerevisiae cln2 rad14 strain, at 50.0 µM, stronger effect = higher value
[5] = NCI Yeast Anticancer Drug Screen. Data for the bub3 strain (AID 167); conditions: S. cerevisiae bub3 mutant strain, at 50.0 µM, stronger effect = higher value
[6] = NCI Yeast Anticancer Drug Screen. Data for the mlh1 rad18 strain (AID 175); conditions: S. cerevisiae mlh1 rad18 strain growth inhibition; at 50.0 µM; stronger effect = higher value

Measured: growth inhibition

S=P(Cl)(Oc1ccc(Cl)cc1)Oc1ccc(Cl)cc1
inactive: [1] -5.55% | [2] 13% | [3] 12.3% | [4] -4.55% | [5] -0.65% | [6] 14.3%

Cc1ccc(OP(=O)(Cl)Cl)cc1
inactive: [1] 6.7% | [2] 4.2% | [3] -4.15% | [4] 4.45% | [5] -36.6% | [6] -3.85%

CN(C)CC1C2C=CC(C2)C1COCC1C2C=CC(C2)C1CN(C)C (stereo not given)
inactive: [1] -19.4% | [2] 0.25% | [3] -13.5% | [4] -9.6% | [5] -3.7% | [6] -11.5%

C[CH2][Pb]([C]#N)([CH2]C)[CH2]C
active: [1] 94.3% | [2] 94.5% | [3] 98% | [4] 86.9% | [5] 96.8% | [6] 96.3%

CC1(C)OCC(COP(=O)(Oc2ccccc2)N(CCCl)CCCl)O1 (stereo not given)
inactive: [1] 14.2% | [2] -12.1% | [3] 3.9% | [4] -4.85% | [5] 9.85% | [6] -0.4%

C=CCCC[P+](CC)(c1ccccc1)c1ccccc1
inactive: [1] 64.3% | [2] 20.6% | [3] 10.4% | [4] -15.4% | [5] 20.1% | [6] 3.8%

CC(C)SC(OC(=O)COc1ccc(Cl)cc1)C(Cl)(Cl)Cl (stereo not given)
inactive: [1] -3.8% | [2] -5.4% | [3] 4.4% | [4] -10.2% | [5] -2.35% | [6] 11.4%

Cc1cc(C)c(O)c(CN2CCCCC2)c1
inactive: [1] 18.6% | [2] 2.6% | [3] 12.2% | [4] 20.4% | [5] 2.8% | [6] 8.85%

CCCCOC(=O)N(CCCl)CCCl
inactive: [1] 15.2% | [2] -5.85% | [3] -5.3% | [4] 8.15% | [5] 5.55% | [6] 5.3%

CN(C)C(=O)Oc1ccc(/C=N/NC(N)=S)nc1
inactive: [1] 33.4% | [2] 31.4% | [3] 23.4% | [4] 5.3% | [5] 29.6% | [6] 33.3%
